Data: paper PMC3068151, “Lithocholic Acid Is an Eph-ephrin Ligand Interfering with Eph-kinase Activation” (PLoS ONE, 2011)

Amino acid sequences for entries named in this document (tags omitted). Residues count along the entry.
UniProt P29317, 24-976: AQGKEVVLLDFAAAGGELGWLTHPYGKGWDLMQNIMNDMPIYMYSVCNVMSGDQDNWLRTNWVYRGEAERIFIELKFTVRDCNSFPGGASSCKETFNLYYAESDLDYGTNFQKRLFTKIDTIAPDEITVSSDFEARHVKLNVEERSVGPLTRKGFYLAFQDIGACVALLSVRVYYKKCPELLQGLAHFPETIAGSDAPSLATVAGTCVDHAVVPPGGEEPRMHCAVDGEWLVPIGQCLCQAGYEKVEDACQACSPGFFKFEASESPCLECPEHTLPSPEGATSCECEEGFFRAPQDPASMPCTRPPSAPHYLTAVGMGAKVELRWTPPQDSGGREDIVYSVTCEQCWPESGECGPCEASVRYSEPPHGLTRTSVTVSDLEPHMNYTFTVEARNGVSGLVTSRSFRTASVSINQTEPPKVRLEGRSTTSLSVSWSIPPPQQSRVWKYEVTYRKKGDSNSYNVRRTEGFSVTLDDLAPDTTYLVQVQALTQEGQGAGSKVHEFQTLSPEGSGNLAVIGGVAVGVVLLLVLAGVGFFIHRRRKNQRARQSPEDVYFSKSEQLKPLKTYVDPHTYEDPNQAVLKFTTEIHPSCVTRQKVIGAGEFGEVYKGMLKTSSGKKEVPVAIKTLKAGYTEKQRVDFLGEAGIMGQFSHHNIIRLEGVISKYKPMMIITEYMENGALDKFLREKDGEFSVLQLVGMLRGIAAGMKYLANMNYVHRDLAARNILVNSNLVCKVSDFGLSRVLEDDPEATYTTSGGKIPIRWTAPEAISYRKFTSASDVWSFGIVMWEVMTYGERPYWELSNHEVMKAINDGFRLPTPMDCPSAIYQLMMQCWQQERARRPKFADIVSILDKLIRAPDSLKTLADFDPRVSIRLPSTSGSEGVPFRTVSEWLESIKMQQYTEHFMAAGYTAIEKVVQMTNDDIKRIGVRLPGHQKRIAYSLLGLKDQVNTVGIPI

Legend:
[1] = molecular target: T1, EphA2 (Homo sapiens, UniProt P29317); assay: Phosphorylated-EphA2 sandwich ELISA in PC3 cell lysates; type: cell-based; design: their known ability to naturally express EphA2; endogenous in cells; host or cells: PC3 (A5); conditions: PC3 cells, 0.25 µg/ml ephrinA1-Fc; read-out: IC50 ephrinA1-Fc induced EphA2 phosphorylation
[2] = molecular target: T1, EphA2; assay: Phosphorylated-EphA2 sandwich ELISA in HT29 cell lysates; type: cell-based; design: their known ability to naturally express EphA2; endogenous in cells; host or cells: HT29 (A6); conditions: HT29 cells, 0.25 µg/ml ephrinA1-Fc; read-out: IC50 ephrinA1-Fc induced EphA2 phosphorylation

C[C@H](CCC(=O)O)[C@H]1CC[C@H]2[C@@H]3CC[C@@H]4C[C@H](O)CC[C@]4(C)[C@H]3CC[C@]12C [LCA, lithocholic acid]
IC50 [1]: 48 µM
IC50 [2]: 66 µM
